For the test, the system named is C. difficile strain 630. Type of test: in vivo, Golden Syrian hamsters. The conditions noted are these: PO twice per day; Example 5ae 50 mg/kg 7 days; vancomycin 5 mg/kg 5 days.

We go through one molecule from patent US10669242B2 (priority 2016, dated 2020).

Structures are written as SMILES.

On to `O=C(Nc1ccc(C(F)(F)F)cn1)c1ccc(CN2C(=O)c3ccc(Cl)cc3NC(=O)[C@H]2Cc2ccccn2)cc1Cl` [Example 5ae, (R)-2-Chloro-4-((8-chloro-2,5-dioxo-3-(pyridin-2-ylmethyl)-2,3-dihydro-1H-benzo[e][1,4]diazepin-4(5H)-yl)methyl)-N-(5-(trifluoromethyl)pyridin-2-yl)benzamide], for which the body weight loss entry is on record as “only exhibited a slight reduction in weight loss”.
